ChEMBL document CHEMBL1149169 (J Med Chem, 2004)

Test system: Adenosine receptor A2a (Bos taurus)
Details: Striatum, Membrane

## Cc1cc(O)c2ccc(N)nc2n1
  135: > 10 µM
